Data on twelve compounds can be found in ChEMBL document CHEMBL1144321, “Synthesis and evaluation of novel peripherally restricted kappa-opioid receptor agonists” (Bioorg Med Chem Lett, 2005).

Protein sequences, listed by entry. Tags and fused reporters are not part of them. Lines headed by an entry give the natural chain unless they say otherwise; changes in a name come on top.
UniProt P41145: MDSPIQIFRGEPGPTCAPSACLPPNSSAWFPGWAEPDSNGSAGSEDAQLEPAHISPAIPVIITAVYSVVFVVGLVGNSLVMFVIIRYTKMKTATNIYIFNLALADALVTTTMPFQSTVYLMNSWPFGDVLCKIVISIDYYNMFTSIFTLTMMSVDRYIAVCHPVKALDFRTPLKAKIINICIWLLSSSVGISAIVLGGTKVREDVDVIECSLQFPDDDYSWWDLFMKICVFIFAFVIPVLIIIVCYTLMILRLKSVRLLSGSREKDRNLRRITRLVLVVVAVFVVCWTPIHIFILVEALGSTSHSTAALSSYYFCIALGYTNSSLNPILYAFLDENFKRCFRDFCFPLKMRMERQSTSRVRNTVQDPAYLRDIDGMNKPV

The species named for one assay is Mus musculus. As to the kind of experiment: Peripheral restriction index (Platform sedation ED50/Writhing ED50) in mouse.
Compound `CN(C(=O)Cc1ccc(C(F)(F)F)cc1)C(CN1CCCC1)c1cccc(OCC(=O)O)c1` (racemic) returned an Index of over 180.
Still for that read-out and setting: the same measure for `CN(C(=O)Cc1ccc(C(F)(F)F)cc1)[C@H](CN1CCCC1)c1ccccc1`: 25.
Still for that read-out and setting: with `CN(C(=O)Cc1ccc(C(F)(F)F)cc1)[C@H](CN1CCCC1)c1cccc(NS(N)(=O)=O)c1` the figure was 18; with `CN(C(=O)Cc1ccc(C(F)(F)F)cc1)C(CN1CCCC1)c1cccc(OCC(=O)OC(C)(C)C)c1` (racemic), 81; with `CN(C(=O)Cc1ccc(C(F)(F)F)cc1)[C@H](CN1CCCC1)c1cccc(NS(C)(=O)=O)c1`, 160.
On the same count and under the same terms, with `CN(C(=O)Cc1ccc(C(F)(F)F)cc1)[C@H](CN1CCCC1)c1cccc(NC(=O)CCC(=O)O)c1` the figure was 54.

The next assay has as its system Mus musculus. As to the kind of experiment: Effective dose to inhibit acetic acid-inducedwrithing after subcutaneous administration in mice. (In general: Writhing tests count abdominal constrictions after an irritant is injected.)
In general, ED50 refers to the dose at which the effect has come halfway, by size or by number of responders. Read a low ED50 as an effect at a small dose. As for `CN(C(=O)Cc1ccc(C(F)(F)F)cc1)C(CN1CCCC1)c1cccc(OCC(=O)O)c1` (racemic), the ED50 came out at 1.7 mg/kg.
Still for that read-out and setting: with `CN(C(=O)Cc1ccc(C(F)(F)F)cc1)[C@H](CN1CCCC1)c1ccccc1` the figure was 0.005 mg/kg; with `COc1cccc(C(CN2CCCC2)N(C)C(=O)Cc2ccc(C(F)(F)F)cc2)c1` (racemic), 0.15 mg/kg.
Consider `CN(C(=O)Cc1ccc(C(F)(F)F)cc1)[C@H](CN1CCCC1)c1cccc(NS(N)(=O)=O)c1`, for which the 50% effect level (ED50) was put at a dose of 0.74 mg/kg.
On the same count and under the same terms, with `CN(C(=O)Cc1ccc(C(F)(F)F)cc1)C(CN1CCCC1)c1cccc(OCC(=O)OC(C)(C)C)c1` (racemic) the figure was 1.7 mg/kg; with `CN(C(=O)Cc1ccc(Cl)c(Cl)c1)C(CN1CCCC1)c1cccc(OCC(=O)O)c1` (centres undefined) [ICI-204448], 1.6 mg/kg.
Consider `CN(C(=O)Cc1ccc(C(F)(F)F)cc1)[C@H](CN1CCCC1)c1cccc(NS(C)(=O)=O)c1`, for which the 50% effect level (ED50) was put at a dose of 0.56 mg/kg.
The same measure, in the same setting: the same measure for `CN(C(=O)Cc1ccc(C(F)(F)F)cc1)[C@H](CN1CCCC1)c1cccc(NC(=O)CCC(=O)O)c1`: 0.87 mg/kg.

A further assay deals with Kappa-type opioid receptor (Homo sapiens, UniProt P41145). Put plainly: Displacement of bound [3H]diprenorphine from membranes expressing cloned human kappa opioid receptor.
Broadly, the Ki is the dissociation constant of the complex between target and ligand, obtained from inhibition or displacement. The low end stands for tighter binding, the high end for weaker binding. In turn, `CN(C(=O)Cc1ccc(C(F)(F)F)cc1)C(CN1CCCC1)c1cccc(OCC(=O)O)c1` (racemic) registered a Ki of 3.7 nM.
The same measure, in the same setting: the same measure for `CN(C(=O)Cc1ccc(C(F)(F)F)cc1)[C@H](CN1CCCC1)c1cccc([N+](=O)[O-])c1`: 0.63 nM; for `CN(C(=O)Cc1ccc(C(F)(F)F)cc1)C(CN1CCCC1)c1cccc(O)c1` (racemic): 0.44 nM.
The same measure, in the same setting: the same measure for `COc1cccc(C(CN2CCCC2)N(C)C(=O)Cc2ccc(C(F)(F)F)cc2)c1` (racemic): 0.53 nM; for `CN(C(=O)Cc1ccc(C(F)(F)F)cc1)[C@H](CN1CCCC1)c1cccc(NS(N)(=O)=O)c1`: 0.48 nM.
Regarding `CN(C(=O)Cc1ccc(C(F)(F)F)cc1)C(CN1CCCC1)c1cccc(OCC(=O)OC(C)(C)C)c1` (racemic), the inhibition constant Ki was determined as 2.9 nM.
For `CN(C(=O)Cc1ccc(C(F)(F)F)cc1)[C@H](CN1CCCC1)c1cccc(NS(C)(=O)=O)c1`, the Ki was 0.36 nM.
`CN(C(=O)Cc1ccc(C(F)(F)F)cc1)[C@H](CN1CCCC1)c1cccc(N(CC(=O)O)CC(=O)O)c1`: the Ki came to 2300 nM.
With `CN(C(=O)Cc1ccc(C(F)(F)F)cc1)[C@H](CN1CCCC1)c1cccc(N)c1`, the affinity, expressed as Ki, was 0.31 nM. This Ki lies about 7400-fold lower than the previous one.
`CN(C(=O)Cc1ccc(C(F)(F)F)cc1)[C@H](CN1CCCC1)c1cccc(NC(=O)CCC(=O)O)c1`: the Ki came to 9.5 nM.
